Laboratory results published in patent publication US20120121589A1, “MODIFIED EGFR ECTODOMAIN” (WAYNE STATE UNIVERSITY, priority 2009, published 2012).
Entries after “also recorded” stand apart in the source; their conditions may differ. One block for each molecule: values may come before it.

The chains behind the UniProt entries cited, without tags or fusion partners. Residues count along the entry.
UniProt P21860, 20-1342: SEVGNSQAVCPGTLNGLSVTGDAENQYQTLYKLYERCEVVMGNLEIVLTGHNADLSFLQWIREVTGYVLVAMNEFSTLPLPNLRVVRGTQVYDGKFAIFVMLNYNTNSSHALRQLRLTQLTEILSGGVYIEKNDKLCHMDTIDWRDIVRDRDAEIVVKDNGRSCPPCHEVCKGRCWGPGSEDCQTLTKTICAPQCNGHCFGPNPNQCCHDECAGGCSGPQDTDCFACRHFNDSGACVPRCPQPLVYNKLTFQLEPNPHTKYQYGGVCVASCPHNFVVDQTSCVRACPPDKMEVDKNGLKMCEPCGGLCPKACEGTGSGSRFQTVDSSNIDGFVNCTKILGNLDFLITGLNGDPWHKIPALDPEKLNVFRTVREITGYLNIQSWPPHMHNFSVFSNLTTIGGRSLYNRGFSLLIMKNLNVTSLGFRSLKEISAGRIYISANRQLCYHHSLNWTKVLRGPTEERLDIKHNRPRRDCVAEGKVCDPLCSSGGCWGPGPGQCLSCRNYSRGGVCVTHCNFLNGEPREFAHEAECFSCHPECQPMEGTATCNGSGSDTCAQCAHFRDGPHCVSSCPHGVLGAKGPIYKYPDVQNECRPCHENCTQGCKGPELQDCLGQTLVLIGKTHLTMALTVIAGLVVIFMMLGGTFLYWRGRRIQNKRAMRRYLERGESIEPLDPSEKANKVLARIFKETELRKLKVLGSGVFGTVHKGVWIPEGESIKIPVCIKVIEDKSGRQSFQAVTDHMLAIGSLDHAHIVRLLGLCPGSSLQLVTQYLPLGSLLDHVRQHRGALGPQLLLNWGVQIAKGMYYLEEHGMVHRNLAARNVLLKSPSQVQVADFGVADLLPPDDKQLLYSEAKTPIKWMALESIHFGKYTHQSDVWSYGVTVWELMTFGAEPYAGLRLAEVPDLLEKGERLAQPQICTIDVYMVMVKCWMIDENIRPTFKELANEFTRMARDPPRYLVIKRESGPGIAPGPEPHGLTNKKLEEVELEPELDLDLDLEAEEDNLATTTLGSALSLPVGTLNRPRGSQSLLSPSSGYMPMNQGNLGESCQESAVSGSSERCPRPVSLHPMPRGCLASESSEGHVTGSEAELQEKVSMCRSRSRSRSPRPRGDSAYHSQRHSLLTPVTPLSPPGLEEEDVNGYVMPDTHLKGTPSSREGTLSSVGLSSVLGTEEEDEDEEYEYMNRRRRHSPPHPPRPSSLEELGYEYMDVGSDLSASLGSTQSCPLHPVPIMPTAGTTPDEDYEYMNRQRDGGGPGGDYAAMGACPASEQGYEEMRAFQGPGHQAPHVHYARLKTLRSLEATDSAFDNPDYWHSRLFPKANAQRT

Columns and labels:
HER-2 = biological target: T1, HER-2 (Homo sapiens, UniProt P04626); experiment: Heregulin-induced phosphorylation of HER-2 in MDA-MB-453 cells; format: cell-based; settings: preincubation, then heregulin, FIG. 8, FIG. 19
T1 construct: endogenous in cells; host or cells: MDA-MB-453
Source text: (§1) The breast cancer MDA-MB-453 cells contain high levels of HER-2 and HER-3. One of the ligands of HER-3 is heregulin. Binding of heregulin HER-3 leads to activation and subsequent heterodimerization of HER-3 with one or more EGFR family members. EBIP is also effective in abrogating heregulin-induced phosphorylation of HER-2 and HER-3 in MDA-MB-453 cells.
(§2) Western blot analysis included the following aspects. […] Cancer Lett 2009.

[1] = test system: breast cancer SKBR-3 cells; experiment: MTT growth assay in breast cancer SKBR-3 cells; format: cell-based, human; settings: increasing concentrations, 48 h; FIG. 7
Experimental: In various embodiments, different modified ectodomains of EGFR are effective in inhibiting the growth of HER-2 as well as HER-3 expressing cells.
(§3) Growth inhibition assay included the following aspects. […] At the end of the treatment period, cells were incubated with 10% of 5 mg/mL stock of MTT and incubated for 3 hours at 37° C.

EGFR [2] = biological target: T2, EGFR (Homo sapiens, UniProt P00533); experiment: TGF-α-induced tyrosine phosphorylation of EGFR (Western blot); format: cell-based; design: endogenous in cells; settings: preincubation 10 μg/ml for 30 min; 10 nM TGF-α for 10 min; FIG. 4
Source text: Accordingly, in various embodiments the “U” region in elicits the growth inhibitory properties of ERRP and human EGFR-448+U (EBIP). ERRP and EBIP (hEGFR1-448+U) may also attenuate TGF-α-induced activation of EGFR as determined by examining the levels of the tyrosine phosphorylated form of EGFR, as illustrated in FIG. 4. […] In the short-term, the levels of total EGFR (unphosphorylated) remain unaffected by this treatment (FIG. 4).
as §2

c-Src = experiment: TGF-α-induced phosphorylation of Src in HCT-116 cells (Western blot); format: cell-based; settings: prior exposure, FIG. 5
Source text: Referring now to FIG. 5, TGF-α markedly stimulates phosphorylation of Tyr416 of c-Src.
as §2

HER-3 = biological target: T3, HER-3 (Homo sapiens, UniProt P21860); experiment: Heregulin-induced phosphorylation of HER-3 in MDA-MB-453 cells; format: cell-based; settings: preincubation, then heregulin, FIG. 8, FIG. 19
T3 construct: endogenous in cells; host or cells: MDA-MB-453
Source text: as §1, §2

[3] = test system: colon cancer HCT-116 cells; experiment: MTT growth assay in colon cancer HCT-116 cells; format: cell-based; settings: for inhibition of growth (MTT): increasing doses, FIG. 3
Experimental: as §3

MDA-MB-468 cells = experiment: MTT growth assay and CalcuSyn synergy analysis in MDA-MB-468 cells; format: cell-based, human; settings: for EBIP (Fa): MDA-MB-468
Experimental: as §3
(§4) Analysis of interaction between two drugs included the following aspects. Combination index (CI) method adapted for in vitro anticancer drug testing was used to determine the nature of interaction between the two agents as described by Majumdar APN, Banerjee S, Nautiyal J, et al. Curcumin synergizes with resveratrol to inhibit colon cancer. Nutr Cancer 2009; 61:544-53. Based on CI values, the extent of synergism/antagonism may be determined.

EGFR [4] = biological target: T2, EGFR; experiment: Coimmunoprecipitation of EBIP with EGFR in MDA-MB-468 cells after TGF-α induction; format: binding; design: endogenous in cells; host or cells: MDA-MB-468; settings: MDA-MB-468 cells preincubated with EBIP, induced with TGF-α; FIG. 12C
Experimental: FIG. 12: Panel A is a schematic representation of (i) full-length hEGFR and four different plasmid constructs of (ii) rat ERRP (amino acids 1-478), (iii) rat EGFR ectodomain (ERRP without U region; referred to as ERRP-448), (iv) hEGFR ectodomain (referred to as hEGFR-501), and (v) hEGFR ectodomain fused with U region (referred to as hEGFR-448+U or EBIP). […] Recombinant proteins containing both His and V5 tags were purified using His tag and immunoblotted with V5 antibody. […] After 8 h of incubation with EBIP, MDA-MB-468 cells, which were serum starved, were induced with TGF-α. The cell lysates were immunoprecipitated with EGFR antibodies overnight and the immunoprecipitates were subsequently subjected to Western blot analysis with V5 antibody for EBIP detection.
In the absence of 0.5 mmol/L CuSO4, no expression of EBIP was detected (FIG. 12B). Because EBIP contains the ligand binding ectodomain of hEGFR, we postulated that it will sequester the ligand, leading to heterodimerization with members of the EGFRs.

[5] = test system: Erks (extracellular signal-regulated kinases); experiment: TGF-α-induced phosphorylation of ERKs in HCT-116 cells (Western blot); format: cell-based; settings: prior exposure
Source text: As observed for EGFR and Src phosphorylation, TGF-α markedly stimulates phosphorylation of Erks (extracellular signal-regulated kinases).
as §2

[6] = Immunohistochemical detection of EBIP (V5 antibody) in tumor remnants; format: in vivo, SCID mice; settings: end of the 55-day period; V5 antibody staining; FIG. 17A
Source text: Immunohistochemical analysis included the following aspects. […] Biochem Biophys Res Commun 2009; 378:344-7.

MDA-MB-468 xenografts = MDA-MB-468 xenografts in SCID mice, tumor growth; format: in vivo
Experimental: Severe combined immunodeficient mice xenografts of MDA-MB-468 cells included the following aspects. […] When tumor burden reached 1,500 to 2,000 mg, mice were euthanized. The tumors were removed, cut into 20 to 30 mg fragment, and subsequently transplanted (s.c.) bilaterally into similarly conditioned 28 animals. […] Treatment was started on day 7 and continued until day 23. Animals and tumor burden were followed for up to 55 days. Tumor measurements were carried out at multiple time points during the experimental period. Mice were weighed and monitored for signs of toxicity. Tumor weights in SCID mice were estimated as tumor weight (mg)=(A×B2)/2, where A and B are the tumor length and width (in mm), respectively. […] Biochem Biophys Res Commun 2009; 378:344-7.

[7] = test system: breast cancer SKBR cell xenografts; experiment: SKBR cell xenografts in SCID mice; format: in vivo; settings: vs vehicle, FIG. 9
Source text: SKBR cells express high levels of HER-2 but contain little no HER-1/EGFR or HER-3. […] At the end of the 40 day experimental period, intratumoral (i.t.) injection of ERRP causes a little over 50% inhibition of tumor growth, when compared with the controls (FIG. 9).

phospho-EGFR = phospho-EGFR (Homo sapiens, UniProt P00533); experiment: Phospho-EGFR (Tyr1173) immunohistochemistry of tumor remnants; settings: day 55, FIG. 20
EGFR [8] = biological target: T2, EGFR; experiment: EGFR phosphorylation in MDA-MB-468 cells (Western blot); settings: dasatinib 1 μmol/L, EBIP 2.5 μg/mL, FIG. 15C
[9] = test system: breast cancer cells (MDA-MB-468, SKBr-3, MDA-MB-453, and MDA-MB-231); experiment: MTT growth assay in four breast cancer cell lines; format: cell-based, human; settings: breast cancer cells expressing varying levels of EGFRs; FIGS. 13B and 13C
Experimental: as §3

MDA-MB-231 cells = experiment: MTT growth assay and CalcuSyn synergy analysis in MDA-MB-231 cells; format: cell-based, human
Experimental: as §3, §4

attenuation of TGF-α-induced tyrosine phosphorylation of EGFR (amino acid 845) (EGFR [2]): do not attenuate
Molecule: hEGFR-501: human EGFR ectodomain that includes amino acids 1-501 but lacks the U region (SEQ ID NO: 13) [reference compound]
inhibition of heregulin-induced phosphorylation/activation of HER-2 (HER-2): neither rEGFR-447 nor hEGFR-501 is effective; also recorded: neither rEGFR-447 nor hEGFR-501 re effective | inhibition of growth of SKBR-3 cells [1]: neither rEGFR-447 nor hEGFR-501 caused any apparent change in the growth | attenuation of TGF-α-induced phosphorylation of Tyr416 of c-Src (c-Src): less attenuation | inhibition of heregulin-induced phosphorylation/activation of HER-3 (HER-3): neither rEGFR-447 nor hEGFR-501 is effective; also recorded: neither rEGFR-447 nor hEGFR-501 re effective | inhibition of growth (MTT) [3]: only marginally effective

coimmunoprecipitation with EGFR (EGFR [4]): coimmunoprecipitate with EGFR | attenuation of TGF-α-induced tyrosine phosphorylation of EGFR (amino acid 845) (EGFR [2]): greatly abrogates this stimulation | inhibition of phosphorylation/activation of EGFR (EGFR [8]): inhibited the phosphorylation
B1: EBIP: human EGFR ectodomain amino acids 1-448 fused at the C-terminus to the 30-amino acid U region of rat ERRP (SEQ ID NO: 14) (protein, listed as Homo sapiens)
chain: MRPSGTAGAALLALLAALCPASRALEEKKVCQGTSNKLTQLGTFEDHFLSLQRMFNNCEVVLGNLEITYVQRNYDLSFLKTIQEVAGYVLIALNTVERIPLENLQIIRGNMYYENSYALAVLSNYDANKTGLKELPMRNLQEILHGAVRFSNNPALCNVESIQWRDIVSSDFLSNMSMDFQNHLGSCQKCDPSCPNGSCWGAGEENCQKLTKIICAQQCSGRCRGKSPSDCCHNQCAAGCTGPRESDCLVCRKFRDEATCKDTCPPLMLYNPTTYQMDVNPEGKYSFGATCVKKCPRNYVVTDHGSCVRACGADSYEMEEDGVRKCKKCEGPCRKVCNGIGIGEFKDSLSINATNIKHFKNCTSISGDLHILPVAFRGDSFTHTPPLDPQELDILKTVKEITGFLLIQAWPENRTDLHAFENLEIIRGRTKQHGQFSLAVVSLNITSLPWQVPSLSWQAVTRPLHPLAQNRVSWDTGP
inhibition of heregulin-induced phosphorylation/activation of HER-2 (HER-2): inhibited; also recorded: able to inhibit; also recorded: abrogates this stimulation | EBIP (Fa) (MDA-MB-468 cells; EBIP 1.25 μg/ml): 0.302 | EBIP (Fa) (MDA-MB-468 cells; EBIP 2.5 μg/ml): 0.385 | EBIP (Fa) (MDA-MB-468 cells; EBIP 5.0 μg/ml): 0.435 | EBIP (Fa) (MDA-MB-468 cells; EBIP 10.0 μg/ml): 0.475 | inhibition of growth of MDA-MB-468 cells (MDA-MB-468 cells; immunoaffinity-purified protein, FIG. 12D): equally effective | inhibition of growth of SKBR-3 cells [1]: markedly inhibit the growth in a dose-dependent manner | attenuation of TGF-α-induced phosphorylation of Erks ([5]; FIG. 6, listed as hEGFR+U): greatly attenuated | attenuation of TGF-α-induced phosphorylation of Erks ([5]; FIG. 6, listed as hEGFR-448): not | presence of EBIP in the tumors [6]: significant expression of EBIP was observed in the tumors | tumor growth, significance of inhibition (MDA-MB-468 xenografts; P<0.05, FIG. 16, Table 3): significantly reduced tumor growth | tumor weight at the end of 55 days, Mean ± SD (MDA-MB-468 xenografts; day-55, dasatinib 10 mg/kg gavage and/or EBIP 25 μg/mouse s.c., every other day, day 7 to 23): 326 ± 304 mg | inhibition (suppression) of tumor growth (MDA-MB-468 xenografts; vs vehicle-treated controls, dasatinib 10 mg/kg gavage and/or EBIP 25 μg/mouse s.c., every other day): about 59% | attenuation of TGF-α-induced phosphorylation of Tyr416 of c-Src (c-Src): abrogated | inhibition of heregulin-induced phosphorylation/activation of HER-3 (HER-3): inhibited; also recorded: able to inhibit; also recorded: abrogates this stimulation | tumor growth of SKBR xenografts [7]: inhibits growth | phospho-EGFR (Tyr1173) immunoreactivity in tumor remnants (phospho-EGFR): no detectable immunoreactivity for phospho-EGFR | inhibition of growth of breast cancer cells, single agent [9]: inhibited the growth; also recorded: effective | EBIP (Fa) (MDA-MB-231 cells; EBIP 1.25 μg/ml): 0.105 | EBIP (Fa) (MDA-MB-231 cells; EBIP 2.5 μg/ml): 0.223 | EBIP (Fa) (MDA-MB-231 cells; EBIP 5.0 μg/ml): 0.387 | EBIP (Fa) (MDA-MB-231 cells; EBIP 10.0 μg/ml): 0.535 | inhibition of growth ([3]; dose of 20 μg/mL, vs corresponding controls, FIG. 18): 70% | inhibition of growth (MTT) [3]: inhibit the growth of colon cancer HCT-116 cells in a dose dependent manner
